PubChem BioAssay AID1996
≈ marks a conversion by molar mass, not a printed value.

Conditions: buffer; pH 7.4; 200.0 µM

| SMILES | solubility kinetic |
| --- | --- |
| CP(=O)(Nc1cccc(Br)c1)Oc1ccccc1 (stereo not drawn) | 46.3 µg/mL (≈ 142 µM) |
| CP(=O)(Nc1ccc(Cl)cc1Cl)Oc1ccccc1 (stereo not drawn) | 39.9 µg/mL (≈ 126 µM) |
| Cc1nc2ccc3ccccc3c2o1.O=[N+]([O-])c1cc([N+](=O)[O-])c(O)c([N+](=O)[O-])c1 | 24.7 µg/mL |
| CN(C)C(=O)c1c([N+](=O)[O-])cc([N+](=O)[O-])cc1[N+](=O)[O-] | > 42.6 µg/mL |
| CCc1ccc(OP(C)(=O)Nc2cccnc2)cc1 (stereo not drawn) | > 41.4 µg/mL |
| O=[N+]([O-])c1ccc2c(c1)C=Nc1ccccc1O2 | 2.8 µg/mL (≈ 11.7 µM) |
| O=[N+]([O-])c1cc([N+](=O)[O-])c(O)c([N+](=O)[O-])c1.c1ccc(Oc2ccncc2)cc1 | 57.5 µg/mL |
| COc1ccccc1OP(C)(=O)Nc1ccccc1 (stereo not drawn) | > 41.6 µg/mL |
